From paper PMC8343220, “The selectivity of α‐adrenoceptor agonists for the human α1A, α1B, and α1D‐adrenoceptors” (Pharmacology Research & Perspectives, 2021)

Key:
Format in all cases: cell-based
human α1A‐adrenoceptor [1] = target: T1, human α1A‐adrenoceptor (Homo sapiens, UniProt P35348); assay: ERK1/2‐phosphorylation (Surefire Alphascreen), CHO‐α1A cells
T1 construct: expressed in transfected cells; host or cells: CHO-K1
T1 sequence (P35348 1-466): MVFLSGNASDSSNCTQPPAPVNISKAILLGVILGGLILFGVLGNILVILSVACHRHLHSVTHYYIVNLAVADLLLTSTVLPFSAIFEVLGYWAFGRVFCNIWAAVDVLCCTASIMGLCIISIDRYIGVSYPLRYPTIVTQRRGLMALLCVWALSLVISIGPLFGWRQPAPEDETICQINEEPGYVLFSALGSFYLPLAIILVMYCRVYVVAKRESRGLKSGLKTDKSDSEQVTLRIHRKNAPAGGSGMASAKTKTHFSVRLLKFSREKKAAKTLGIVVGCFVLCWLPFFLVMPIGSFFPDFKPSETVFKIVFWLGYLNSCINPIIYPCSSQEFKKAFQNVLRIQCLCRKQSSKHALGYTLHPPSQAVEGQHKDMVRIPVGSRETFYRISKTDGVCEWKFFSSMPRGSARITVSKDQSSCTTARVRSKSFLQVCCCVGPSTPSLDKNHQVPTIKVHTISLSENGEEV

human α1A‐adrenoceptor [2] = target: T1, human α1A‐adrenoceptor; assay: ^3H‐cAMP accumulation, CHO‐α1A cells; details: 5 h
human α1A‐adrenoceptor [3] = target: T1, human α1A‐adrenoceptor; assay: Intracellular free calcium mobilization, CHO‐α1A cells
human α1A‐adrenoceptor [4] = target: T1, human α1A‐adrenoceptor; assay: ^3H‐cAMP accumulation in the presence of 10 μM forskolin, CHO‐α1A cells

## Bromocryptine
Human α1A‐adrenoceptor [1]
  ERK1/2‐phosphorylation Log EC50: −7.26 ± 0.16
Human α1A‐adrenoceptor [2]
  cAMP accumulation Log EC50: No response
Human α1A‐adrenoceptor [3]
  Intracellular calcium release Log EC50: −7.31 ± 0.07
Human α1A‐adrenoceptor [4]
  cAMP accumulation (in presence of forskolin) Log EC50: No response
